Biological target: human GPR40 (Homo sapiens, UniProt O14842)
Assay: Inositol Phosphate Turnover (IP1) Assay 1
Details: read-out: Human IP1 EC50 (nM) (IP1) Assay 1; HEK cells stably expressing human GPR40; compound transferred via pocket tip; 60 minutes at 37 degrees
Procedure: Human and mouse GPR40 stable cell-lines were generated in CHO cells stably expressing NFAT BLA (Beta-lactamase). A human GPR40 stable cell-line was generated in HEK cells stably expressing the aequorin expressing reporter. The expression plasmids were transfected using lipofectamine (Life Technologies) following manufacturer's instructions. Stable cell-lines were generated following drug selection.
The assay is performed in 384-well format. HEK cells stably expressing human GPR40 are plated at 15,000 cells per well in growth medium (DMEM/10% fetal calf serum). Cell plates are then incubated 16 hours at 37 degrees in a 5% CO2 incubator.
Measurement of Inositol Phosphate Turnover (IP1) is performed using the CisBio IP-One kit (Part number 62IPAPEB). After the 16 hour incubation, the cells are washed with HEPES buffer and 10 ul of stimulation buffer (prepared as described in the kit) is added to each well. In a separate plate, compounds are diluted in DMSO (400-fold over the final concentration in the assay well) and 25 nl is transferred via pocket tip to the appropriate well in the assay cell plate. The plates are then incubated for 60 minutes at 37 degrees. […] The plates are then read in a Perkin Elmer EnVision or equivalent reader able to measure FRET. […]

Sequences of proteins named here, by UniProt entry; tags and fusion partners are left off.
UniProt O14842, whole entry: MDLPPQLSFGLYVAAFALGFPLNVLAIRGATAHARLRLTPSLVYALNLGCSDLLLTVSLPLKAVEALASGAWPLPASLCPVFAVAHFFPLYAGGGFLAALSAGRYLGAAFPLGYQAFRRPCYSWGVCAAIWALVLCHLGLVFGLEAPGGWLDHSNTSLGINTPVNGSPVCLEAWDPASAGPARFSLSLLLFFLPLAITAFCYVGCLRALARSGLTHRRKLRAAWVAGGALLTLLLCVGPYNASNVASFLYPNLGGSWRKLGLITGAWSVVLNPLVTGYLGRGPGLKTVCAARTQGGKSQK

Work on `COc1ccc(F)c(-c2ccc(C3COc4ccc(C(C5CC5)C(C)C(=O)O)cc4C3)cc2)c1` (stereo not shown) yielded an EC50 of 9 nM.

From patent publication US10662171B2, “Antidiabetic bicyclic compounds” (Merck Sharp & Dohme Corp., priority 2014, dated 2020)
